Experimental data: patent US9420796B2 (priority 2013, dated 2016)

System: zebra mussel veligers
Details: in vivo

chlorine
Dead veligers estimated in the first portion of the experimental tank: approximately 231,800
